# Measured affinities in a library of Ab-14 heavy chain variants

Binding partner: SARS-CoV-2 spike HR2 peptide, sequence PDVDLGDISGINAS.

Parent scFv Ab-14: VH joined to VL by a 15-residue (Gly4Ser)3 linker. Changes lie in the heavy chain CDRs alone.
VH: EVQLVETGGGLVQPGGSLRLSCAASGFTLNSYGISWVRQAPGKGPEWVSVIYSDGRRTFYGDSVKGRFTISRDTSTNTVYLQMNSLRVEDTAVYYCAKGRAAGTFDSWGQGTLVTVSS
VL: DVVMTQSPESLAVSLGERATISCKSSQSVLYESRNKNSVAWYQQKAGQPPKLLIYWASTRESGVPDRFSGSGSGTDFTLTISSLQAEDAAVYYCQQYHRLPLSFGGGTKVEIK

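Phage display of a naive human antibody library on the peptide gave the parent. Library AAYL49 holds single substitutions and randomly drawn double and triple substitutions in the CDRs. In AlphaSeq, yeast of one mating type display the scFv and yeast of the other type display the target. The frequency of each diploid, read from paired DNA barcodes, reflects how well the two displayed proteins bind. The ratio of observed to expected reads was calibrated, replicate by replicate, on BCL2-family standards whose Kd was known from biolayer interferometry. Mating was done three times.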

Variants are written as CDR1, CDR2 and CDR3 of the heavy chain (limits as in the source). Parent: GFTLNSYGIS, VIYSDGRRTFYGDSVK, GRAAGTFDS. The read-out is the apparent dissociation constant on a log10 scale (nM): the lower, the stronger. The mean shown is taken over the replicates in which the pair was detected. "n.d." means that the variant was in the library but no mating with the target was seen in that replicate; the authors take this as a sign of poor binding, and no number exists. In this assay the parent's reference entry averaged 0.65; its copy inside this library read 4.11 (one replicate of three).

| # | CDR-H1 | CDR-H2 | CDR-H3 | log10 Kd, replicates | mean log10 Kd (nM) | empty controls |
|---|---|---|---|---|---|---|
| 1 | GFTLNSYGIS | VIYSDGRRTFYIMSVK | GWAAGTFDS | n.d. n.d. n.d. | n.d. | 0/9 |
| 2 | GFTLNSYGIS | VIYSDGRRTFPGDIVK | FRAAGTFDS | n.d. n.d. n.d. | n.d. | 0/9 |
| 3 | GFTCNSYGIV | VIYSDGRRTQYGDSVK | GRAAGTFDS | n.d. n.d. n.d. | n.d. | 0/9 |
| 4 | GFSLNSYGIS | VRYSDGRRTFYGDEVK | GRAAGTFDS | 4.31 3.22 4.75 | 4.09 | 7/9 (4.18) |
| 5 | GFTLNSYGIS | VIYSDGRATFYGDSVK | QRAADTFDS | n.d. n.d. n.d. | n.d. | 1/9 (2.84) |
| 6 | GCTLNSYGIS | VIYSDGRRTFYGDSVK | GFAPGTFDS | 3.73 n.d. n.d. | 3.73 | 4/9 (3.99) |
| 7 | GFTLNSYGIQ | VIYSDTRRTFYGDSVK | GRAAGTFDM | n.d. n.d. n.d. | n.d. | 1/9 (4.82) |
| 8 | GFTLNSHGIS | VIVNDGRRTFYGDSVK | GRAAGTFDS | 3.08 n.d. n.d. | 3.08 | 2/9 (3.67) |
| 9 | GFTLNSYGIS | VPYSDGRRTFLQDSVK | GRAAGTFDS | n.d. n.d. n.d. | n.d. | 0/9 |
| 10 | GFTYNSAGIS | VIYSDGRRTFYGDSVK | GRAAGTFDW | n.d. 3.85 n.d. | 3.85 | 3/9 (3.63) |
| 11 | GFTLNSYGAS | VIYSDGRRTFYCDSVK | GRAAGTFDL | 3.25 n.d. 3.51 | 3.38 | 1/9 (3.53) |
| 12 | GFTLNSYGIS | VIYSDGRRTFAPDSVK | GRAAGDFDS | n.d. n.d. n.d. | n.d. | 1/9 (3.27) |
| 13 | GFTLNSYGIS | VIYSDKRRTFYGDSVK | GGASGTFDS | n.d. n.d. n.d. | n.d. | 0/9 |
| 14 | GFTLNLYGIS | VIYSDGRRTFYGDSFK | GRAAGTFDC | n.d. n.d. n.d. | n.d. | 0/9 |
| 15 | GFTLNSYGIS | VIYSDGRRTFYGDSVK | IRQAGTFSS | 1.87 1.66 1.84 | 1.79 | 2/9 (3.88) |
| 16 | GGTLNSYGIS | VIYSEGRRTFYGDSVK | GRAAGTFDE | 5.14 n.d. n.d. | 5.14 | 0/9 |
| 17 | GFTYNSGGIF | VIYSDGRRTFYGDSVK | GRAAGTFDS | n.d. 4.58 n.d. | 4.58 | 3/9 (3.41) |
| 18 | GFALNSYGIS | VIYSDGWRTFYGDSVK | GRAAGTTDS | n.d. n.d. n.d. | n.d. | 0/9 |
| 19 | GFTLNSDGIS | VIYSDGRRTFYGDSVK | GGAAGTFWS | 5.31 n.d. n.d. | 5.31 | 1/9 (5.02) |
| 20 | LFTLNSYGIS | HIYSDGRRTFYGDSVK | GRAAGTFDK | n.d. n.d. 3.89 | 3.89 | 2/9 (2.48) |
| 21 | GFCLNNYGIS | VIYSDGRRTFYGDSVK | GRAAGTFDS | n.d. n.d. n.d. | n.d. | 2/9 (3.88) |
| 22 | GFTLNSYGIS | VIYSDGRRTFYVDSVS | GAAAGTFDS | 1.94 1.48 1.42 | 1.61 | 2/9 (2.99) |
| 23 | GFLLNSYGIS | VIYSDGRRTFYGYSVK | GRAAGTFMS | 3.65 4.15 4.93 | 4.24 | 5/9 (4.94) |
| 24 | GFTLSSYGIS | VIYSDGTRTFYGDSVK | GRQAGTFDS | 2.09 1.89 2.82 | 2.26 | 1/9 (2.49) |
| 25 | GFTSNSYGIS | VIYSDGRRTFYGCSVK | GRAARTFDS | n.d. n.d. n.d. | n.d. | 1/9 (2.81) |
| 26 | GFTLNFYGIS | VIYSDGRRTFYGDSVK | GFAAGTFQS | n.d. n.d. n.d. | n.d. | 0/9 |
| 27 | GFPLNQYGIS | PIYSDGRRTFYGDSVK | GRAAGTFDS | n.d. n.d. n.d. | n.d. | 0/9 |
| 28 | GFTLNSYGIS | VIYSDGRMTFYGDSVC | GRAAGWFDS | n.d. 3.74 n.d. | 3.74 | 1/9 (3.34) |
| 29 | GFTLNSYGAS | VIYSDGRRTFYGDSVK | GNRAGTFDS | n.d. n.d. 4.37 | 4.37 | 2/9 (3.89) |
| 30 | GFTLGSLQIS | VIYSDGRRTFYGDSVK | GRAAGTFDS | n.d. n.d. n.d. | n.d. | 0/9 |
| 31 | GFTLNSYGIA | VIYSDGRRTFYGESVK | GRAEGTFDS | n.d. n.d. n.d. | n.d. | 1/9 (2.96) |
| 32 | GFTLNSYGIS | VIYSDFRRTFYGDSVK | GFAEGTFDS | n.d. n.d. n.d. | n.d. | 2/9 (3.97) |
| 33 | GFTLNSYGIS | VIYSDGRRTFSGCSVK | GRAAVTFDS | n.d. n.d. n.d. | n.d. | 0/9 |
| 34 | GFTLNSYGIS | QIYSNGRRTFYGDSVK | GRAAETFDS | n.d. n.d. n.d. | n.d. | 0/9 |
| 35 | GFTLNSYGIS | VIYSDGRRTFYGDSVK | WRTAMTFDS | 2.58 2.58 2.37 | 2.51 | 0/9 |
| 36 | GFTLNEYGSS | VIYSDGRRTFYGDSVK | GRAAGPFDS | n.d. n.d. n.d. | n.d. | 0/9 |
| 37 | GFTENSYGIS | VIYSDGRRDFYGDSVK | GRAAGTFDC | n.d. n.d. n.d. | n.d. | 1/9 (3.79) |
| 38 | GFVLNSYGIS | VIYSDGRRTMYGDSVK | GDAAGTFDS | 1.73 1.76 2.03 | 1.84 | 6/9 (4.28) |
| 39 | GFTLNSYGIS | VIDSDGWRTFYGDSVK | GRAAGCFDS | n.d. n.d. 3.84 | 3.84 | 2/9 (2.85) |
| 40 | GFTLNSYGIS | VIYSDGRRTFYGDCVK | GRQAGQFDS | n.d. 4.47 n.d. | 4.47 | 1/9 (3.15) |
| 41 | GFHLNSYGFS | VIYSDGRRTFYGDSVK | GRAAGMFDS | 1.84 2.08 2.84 | 2.25 | 2/9 (4.98) |
| 42 | GFTKNSYGFS | VIYSDGRRTFYGDSVK | GIAAGTFDS | n.d. n.d. n.d. | n.d. | 1/9 (3.98) |
| 43 | GFTLNWYGIS | VIYSDGRRTFYGDGVK | GRAAGTFDS | n.d. n.d. 3.69 | 3.69 | 0/9 |
| 44 | GITLNSYGIS | VIYSDGRRTFYGDSVT | GRAAGTLDS | n.d. n.d. n.d. | n.d. | 1/9 (3.19) |
| 45 | GFTLNSYGIY | VIYNDGRRTFYGDSVC | GRAAGTFDS | n.d. n.d. n.d. | n.d. | 1/9 (4.35) |
| 46 | GFTLNSYGIS | VIYSDGCRTFYGDSVK | GRAAGTFIS | n.d. n.d. n.d. | n.d. | 0/9 |
| 47 | GFTLNSYGIS | VIYSLGYRTFYADSVK | GRAAGTFDS | n.d. n.d. n.d. | n.d. | 0/9 |

From the list, the first 5 with no signal in any replicate:

CDR-H1	CDR-H2	CDR-H3	log10 Kd, replicates	mean log10 Kd (nM)	empty controls
GFTLNSYGIS	VIYSDGRRTFYIMSVK	GWAAGTFDS	n.d. n.d. n.d.	n.d.	0/9
GFTLNSYGIS	VIYSDGRRTFPGDIVK	FRAAGTFDS	n.d. n.d. n.d.	n.d.	0/9
GFTCNSYGIV	VIYSDGRRTQYGDSVK	GRAAGTFDS	n.d. n.d. n.d.	n.d.	0/9
GFTLNSYGIS	VIYSDGRATFYGDSVK	QRAADTFDS	n.d. n.d. n.d.	n.d.	1/9 (2.84)
GFTLNSYGIQ	VIYSDTRRTFYGDSVK	GRAAGTFDM	n.d. n.d. n.d.	n.d.	1/9 (4.82)

Background: pairings of library AAYL49 with three empty control strains gave a value in 15% of cases (median 4.06, 5th percentile 2.83). Values in that range, when seen in few replicates, are hard to tell from nonspecific mating. Also given: how often the same scFv was detected with the empty control strains, with their mean in brackets.

Reference: Engelhart et al. 2022, doi:10.1038/s41597-022-01779-4. File: FLAb, binding data.